The text below walks through data of patent US20250312323A1 (Cavion, Inc., priority 2018, published 2025).

The assay concerns patients with essential tremor. The assay can be described thus: T-CALM: TETRAS performance subscale, investigator rated. The note with it: Day 15, N 39.

Turning to `CC(C)c1ccc(CC(=O)N[C@H](C)c2ccc(OCC(F)(F)F)cn2)cc1` [CX-8998], the “Subjects with improvement of at least 5 points by TETRAS-PS score, number” value is reported as 12.
